Experimental data published in patent publication US6713443B1, “Compounds which modify serotoninergic transmission, diagnostic and therapeutic applications” (Institut Pasteur, priority 1993, dated 2004).
Marks after values point to notes of the source that are not given here.

Protein sequences, listed by entry. Tags and fused reporters are not part of them. Residues count along the entry.
UniProt P19327, whole entry: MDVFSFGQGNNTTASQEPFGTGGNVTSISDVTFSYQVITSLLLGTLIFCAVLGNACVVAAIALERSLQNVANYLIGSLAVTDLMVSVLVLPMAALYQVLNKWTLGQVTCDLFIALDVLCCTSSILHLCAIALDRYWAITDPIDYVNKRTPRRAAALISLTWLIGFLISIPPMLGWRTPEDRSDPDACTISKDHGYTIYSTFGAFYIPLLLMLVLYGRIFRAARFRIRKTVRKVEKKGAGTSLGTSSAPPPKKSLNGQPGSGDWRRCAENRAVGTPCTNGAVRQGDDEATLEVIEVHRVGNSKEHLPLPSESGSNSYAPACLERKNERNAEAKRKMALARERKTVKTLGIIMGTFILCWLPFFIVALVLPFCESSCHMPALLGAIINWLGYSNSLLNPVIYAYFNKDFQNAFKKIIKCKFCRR
UniProt P14842, whole entry: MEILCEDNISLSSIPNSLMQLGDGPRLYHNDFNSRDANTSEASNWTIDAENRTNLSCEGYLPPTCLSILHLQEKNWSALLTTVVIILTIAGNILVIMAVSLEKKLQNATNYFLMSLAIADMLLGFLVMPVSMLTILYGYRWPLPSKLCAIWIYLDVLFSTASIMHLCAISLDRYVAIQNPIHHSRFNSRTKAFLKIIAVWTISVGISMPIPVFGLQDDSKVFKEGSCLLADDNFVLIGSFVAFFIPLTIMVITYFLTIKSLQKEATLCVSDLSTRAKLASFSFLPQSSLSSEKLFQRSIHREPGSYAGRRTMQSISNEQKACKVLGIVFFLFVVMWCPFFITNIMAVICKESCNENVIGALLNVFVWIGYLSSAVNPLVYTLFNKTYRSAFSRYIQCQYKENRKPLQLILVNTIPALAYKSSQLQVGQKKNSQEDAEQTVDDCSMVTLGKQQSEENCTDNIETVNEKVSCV
UniProt P35563, 24-483: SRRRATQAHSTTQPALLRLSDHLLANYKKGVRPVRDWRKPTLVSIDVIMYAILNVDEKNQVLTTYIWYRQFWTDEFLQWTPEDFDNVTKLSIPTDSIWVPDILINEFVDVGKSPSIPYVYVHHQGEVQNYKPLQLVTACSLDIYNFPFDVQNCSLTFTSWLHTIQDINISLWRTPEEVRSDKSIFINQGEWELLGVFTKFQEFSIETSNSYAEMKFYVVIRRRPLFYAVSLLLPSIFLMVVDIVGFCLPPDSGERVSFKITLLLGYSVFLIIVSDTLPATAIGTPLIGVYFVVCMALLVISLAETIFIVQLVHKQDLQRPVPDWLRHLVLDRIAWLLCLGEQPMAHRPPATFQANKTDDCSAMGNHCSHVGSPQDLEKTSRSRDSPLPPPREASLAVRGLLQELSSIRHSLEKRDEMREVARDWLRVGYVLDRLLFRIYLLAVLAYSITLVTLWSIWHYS
UniProt P31390, whole entry: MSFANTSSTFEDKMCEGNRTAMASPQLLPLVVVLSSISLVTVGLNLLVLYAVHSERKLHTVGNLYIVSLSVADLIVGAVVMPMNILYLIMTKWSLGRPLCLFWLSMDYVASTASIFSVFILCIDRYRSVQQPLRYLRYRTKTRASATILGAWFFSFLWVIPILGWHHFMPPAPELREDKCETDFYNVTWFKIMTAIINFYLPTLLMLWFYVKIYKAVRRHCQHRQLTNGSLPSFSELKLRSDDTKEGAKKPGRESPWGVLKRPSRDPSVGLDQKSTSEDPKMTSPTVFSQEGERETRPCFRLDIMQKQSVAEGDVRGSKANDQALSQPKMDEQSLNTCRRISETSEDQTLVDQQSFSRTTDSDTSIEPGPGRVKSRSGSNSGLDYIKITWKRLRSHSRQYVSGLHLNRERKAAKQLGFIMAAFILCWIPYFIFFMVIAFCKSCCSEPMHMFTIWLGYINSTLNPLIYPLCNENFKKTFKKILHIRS
UniProt P31652, whole entry: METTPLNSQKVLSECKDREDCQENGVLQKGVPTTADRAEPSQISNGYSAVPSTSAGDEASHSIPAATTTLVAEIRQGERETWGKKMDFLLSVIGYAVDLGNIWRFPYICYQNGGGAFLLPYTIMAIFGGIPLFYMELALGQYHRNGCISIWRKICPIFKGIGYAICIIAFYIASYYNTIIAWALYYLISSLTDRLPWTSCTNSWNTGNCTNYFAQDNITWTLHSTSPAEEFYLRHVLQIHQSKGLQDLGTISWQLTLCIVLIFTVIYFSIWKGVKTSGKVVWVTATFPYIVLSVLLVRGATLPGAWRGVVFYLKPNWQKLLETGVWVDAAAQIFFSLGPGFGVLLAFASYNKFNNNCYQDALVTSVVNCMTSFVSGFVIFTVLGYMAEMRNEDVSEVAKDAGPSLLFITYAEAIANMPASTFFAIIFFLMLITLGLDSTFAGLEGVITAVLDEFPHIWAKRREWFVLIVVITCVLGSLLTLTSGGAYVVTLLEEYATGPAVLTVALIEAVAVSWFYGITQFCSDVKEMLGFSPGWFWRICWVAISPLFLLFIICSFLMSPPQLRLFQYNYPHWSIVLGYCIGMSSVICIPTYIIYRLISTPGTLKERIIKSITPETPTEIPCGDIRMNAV
UniProt P28334, whole entry: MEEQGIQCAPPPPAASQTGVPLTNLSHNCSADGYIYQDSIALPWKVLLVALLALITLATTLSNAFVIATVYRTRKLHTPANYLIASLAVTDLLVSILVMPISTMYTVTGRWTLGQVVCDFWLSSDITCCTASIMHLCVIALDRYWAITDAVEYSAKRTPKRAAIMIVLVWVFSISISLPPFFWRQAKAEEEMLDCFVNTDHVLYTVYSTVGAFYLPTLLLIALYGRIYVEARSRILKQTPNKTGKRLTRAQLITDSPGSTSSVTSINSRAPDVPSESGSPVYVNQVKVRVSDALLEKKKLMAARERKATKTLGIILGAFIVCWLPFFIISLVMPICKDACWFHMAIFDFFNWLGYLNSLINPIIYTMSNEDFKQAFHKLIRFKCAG
UniProt P28564, whole entry: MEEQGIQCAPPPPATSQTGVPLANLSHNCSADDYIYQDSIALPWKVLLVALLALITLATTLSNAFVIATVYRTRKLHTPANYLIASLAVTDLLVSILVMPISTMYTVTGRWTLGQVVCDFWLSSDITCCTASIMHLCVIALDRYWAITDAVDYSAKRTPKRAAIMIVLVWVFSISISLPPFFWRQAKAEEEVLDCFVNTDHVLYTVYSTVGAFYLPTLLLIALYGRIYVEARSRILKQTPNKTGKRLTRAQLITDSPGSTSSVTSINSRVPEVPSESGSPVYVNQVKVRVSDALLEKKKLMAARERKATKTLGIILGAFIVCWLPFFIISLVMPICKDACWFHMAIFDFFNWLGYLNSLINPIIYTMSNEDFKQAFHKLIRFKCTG

What was measured:
5-HT1 receptors = test: Inhibition of [3H]5-HT binding to the 5-HT1 receptors; design: species or system rat
Protocol: Using, as discrimination criterion, the capacity of a potential factor to interact with the recognition of 5-HT by the 5-HT1B/1D receptor of membranes of rat brain synaptosomes, as described in FR-2,657,784, an active compound was purified from rat, horse and bovine brain extracts. The methodology of the purification involved separations by gel permeation, normal or reversed phases or alternatively ion exchanges.
The synthetic peptide LSAL was tested for its capacity to “mimic” the effects of the purified fraction obtained from brain extracts.

5-HT1A = biological target: T1, 5-HT1A (Rattus norvegicus, UniProt P19327); test: [3H]8-OH-DPAT binding, rat brain membranes
T1 construct: from tissue; host or cells: rat brain membranes

5-HT2A = biological target: T2, 5-HT2A (Rattus norvegicus, UniProt P14842); test: [3H]DOB binding, rat brain membranes; conditions: 1 nM peptide; [3H]DOB (5 nM)
T2 construct: from tissue; host or cells: rat brain membranes

5-HT3 = biological target: T3, 5-HT3 (Rattus norvegicus, UniProt P35563); test: [3H]BRL 43694 binding, rat brain membranes; conditions: 1 nM peptide; [3H]BRL 43694 (3 nM)
T3 construct: from tissue; host or cells: rat brain membranes

β adrenergic receptor = test: [3H]dihydroalprenolol binding, rat brain membranes; conditions: 1 nM peptide; [3H]dihydroalprenolol (3 nM) + 5-HT-5
[1] = biological target: T4, histaminergic H1 receptor (Rattus norvegicus, UniProt P31390); test: [3H]mepyramine binding, rat brain membranes; conditions: 1 nM peptide; [3H]mepyramine (5 nM)
T4 construct: from tissue; host or cells: rat brain membranes

[2] = biological target: T5, site of recapture of 5-HT (Rattus norvegicus, UniProt P31652); test: Recapture of 5-HT in synaptosomal preparations; assay type: biochemical
T5 construct: from tissue; host or cells: synaptosomal preparations

mouse 5-HT1B receptor = biological target: T6, mouse 5-HT1B receptor (Mus musculus, UniProt P28334); test: Adenylyl cyclase activity, NIH 3T3 cell membranes expressing the mouse 5-HT1B receptor; assay type: biochemical
T6 construct: expressed in transfected cells; host or cells: NIH 3T3 cells
Protocol: NIH 3T3 cell membranes expressing the mouse 5-HT1B receptor gene were suspended and homogenized with a Dounce homogenizer in a 50 mM Tris-HCl buffer, pH 7.4, containing 3 mM MgCl2 and 0.2 mM EGTA (TME buffer).
The adenylyl cyclase activities were measured on aliquot fractions of 50 μl (30-50 μg of protein) of homogenates in a final volume of 100 μl, containing 0.1 mM [α-^32P]ATP (1 μCi), 1 mM MgCl2, 50 μM GTP, 10 μM forskolin, 100 mM NaCl, 10 mM theophylline, 20 mM phosphocreatinine, 0.2 mg/ml creatine kinase, 1 mM [^3H]cAMP (=15,000 cpm/test) and the substances to be studied.
The membranes were incubated for 20 minutes at 30° C. The reaction was stopped by addition of 200 μl of 5 mM ATP, 5 mM cAMP and 1% sodium dodecyl sulphate dissolved in 50 mM Tris-HCl buffer.
The [^32P]cAMP formed was isolated by the two-column chromatography method described by Salomon et. al. (Adv. Cyclic Nucleotide Res., 10, 35-55 (1979), modified by De Vivo and Maayani (J. Pharmacol. Exp. Therap. 238, 248-253 (1986)).
The 5-HT1B/D receptors are known to be predominantly coupled to the Gi protein, inhibiting the activity of adenylyl cyclase. The interaction of LSAL was examined on the enzymatic activity correlated with the 5-HT1B receptor stimulation expressed in NIH 3T3 cells.

5-HT1B/D receptors = biological target: T7, 5-HT1B/D receptors (Rattus norvegicus, UniProt P28564); test: K+-induced liberation of [3H]5-HT from rat brain hippocampus synaptosomes; assay type: cell-based
T7 construct: rat brain hippocampus synaptosomes previously charged with radioactive amine; from tissue; host or cells: rat brain hippocampus synaptosomes
Excerpt: FIG. 3 represents the effect of the peptide on the release of serotonin in the synaptosomes of rat brain hippocampus. The results are expressed in percentages of [^3H]5-HT release (P2/P1 ratio) in the absence of peptide. Each point is the mean plus or minus the standard deviation of triplicate determinations, obtained with the aid of 3-6 separate hippocampus homogenates.
The method used is the method described above (BOLANOS-JIMENEZ B. et al., Eur. J. Pharmacol. 242, 1-6 (1993)) with the following modifications: the [^3H]acetylcholine was substituted by 60 nM [^3H]5-HT and 0.01% ascorbic acid was added to the incubation medium.
The activity of the peptide on the liberation of [^3H]5-HT from rat brain hippocampus synaptosomes previously charged with radioactive amine was examined.

BALB/C mice = test: Raised cross-shaped labyrinth; assay type: in vivo
Excerpt: This experimental test is used to determine the degree of anxiety and consists in a raised labyrinth with two branches, one protected by walls and the other unprotected.
The animal is assumed to be anxious when it avoids the entrance and reduces the time spent in the open branches.
Male BALB/C mice weighing 20 to 24 g were used.
The raised cross-shaped labyrinth was made of plexiglass with open branches and two closed branches of the same size (12.5×5 cm) with walls 15 cm high, these branches extending from a central platform of 5×5 cm, placed 40 cm above the ground.
LSAL dissolved in 5 ml of saline solution at 0.9% in a volume of 5 μl was injected via the icv route into the mice. Three hours later, the animal was placed on the central platform of the labyrinth. Each entry into a branch as well as the time spent in each branch was recorded. The duration of the test was 5 minutes. The labyrinth was cleaned after each test.
LSAL was tested under conditions of low light intensity (BENJAMIN D. et al., Life Sci. 47, 195-203 (1990)).
The results were expressed as mean plus or minus the standard deviation of the percentage of entries into the open branches (% entries into the open branches), percentage of time spent in the open branches (% time in the open branch) and total number of entries into the branches. Difference with the control: *p<0.05, **p<0.01 (student's test).

[3] = LSAL 0.5 μg, 1 hour after i.v. injection
[4] = LSAL 2 μg, 1 hour after i.v. injection
[5] = LSAL 2 μg, 3 hours after i.v. injection
[6] = LSAL 10 μg, 1 hour after i.v. injection
[7] = LSAL 10 μg, 3 hours after i.v. injection
[8] = LSAL 50 μg, 3 hours after i.v. injection

SMILES: CC(C)C[C@H](NC(=O)[C@H](C)NC(=O)[C@H](CO)NC(=O)[C@@H](N)CC(C)C)C(=O)O [LSAL, Leu-Ser-Ala-Leu]
- IC50 (5-HT1 receptors): ~0.01 nM
- INHIBITORY EFFECT AS % OF THE CONTROL (5-HT1A; 1 nM peptide, [3H]8-OH-DPAT (3 nM)): 0 % of the control
- effect on 5-HT1A receptors (5-HT1A; at a concentration which strongly antagonized the binding to 5-HT1B/1D): not affected
- INHIBITORY EFFECT AS % OF THE CONTROL (5-HT2A): 2 ± 8 % of the control
- INHIBITORY EFFECT AS % OF THE CONTROL (5-HT3): 0 ± 10 % of the control
- INHIBITORY EFFECT AS % OF THE CONTROL (β adrenergic receptor): 10 ± 15 % of the control
- INHIBITORY EFFECT AS % OF THE CONTROL [1]: 10 ± 10 % of the control
- effect on the recapture of 5-HT [2]: did not show any other effect
- effect on the basal production of cAMP (mouse 5-HT1B receptor; NIH 3T3 cells expressing 5-HT1B): did not have any effect
- effect on the inhibitory effect of 5-HT on adenylyl cyclase activity stimulated by forskolin (mouse 5-HT1B receptor; concentration dependent, bell-shaped dose-response curve, FIG. 2): significantly increased
- IC50 (5-HT1B/D receptors): ~0.01 nM
- Emax at 0.0001 µM (5-HT1B/D receptors; at a concentration of 10^−10M, decreases at higher concentrations, read-out: maximum effect, inhibition of the evoked liberation): 20 to 25%
- effect on the action of 5-HT on the liberation of [3H]5-HT (5-HT1B/D receptors; conditions similar to the binding tests (at equilibrium)): counteracts its inhibitory effect
- % Total entries into the branches (BALB/C mice; [3]): 8 ± 2%
- % entries into the open branches (BALB/C mice; [3]): 63 ± 11%
- % time spent in the open branches (BALB/C mice; [3]): 64 ± 8%
- % Total entries into the branches (BALB/C mice; [4]): 8 ± 2%
- % entries into the open branches (BALB/C mice; [4]): 69 ± 10%
- % time spent in the open branches (BALB/C mice; [4]): 73 ± 8%
- % Total entries into the branches (BALB/C mice; [5]): 15 ± 2** %
- % entries into the open branches (BALB/C mice; [5]): 60 ± 8%
- % time spent in the open branches (BALB/C mice; [5]): 62 ± 9%
- % Total entries into the branches (BALB/C mice; [6]): 9 ± 2* %
- % entries into the open branches (BALB/C mice; [6]): 80 ± 6%
- % time spent in the open branches (BALB/C mice; [6]): 69 ± 6%
- % Total entries into the branches (BALB/C mice; [7]): 14 ± 1** %
- % entries into the open branches (BALB/C mice; [7]): 80 ± 5** %
- % time spent in the open branches (BALB/C mice; [7]): 85 ± 4* %
- % Total entries into the branches (BALB/C mice; [8]): 8 ± 1%
- % entries into the open branches (BALB/C mice; [8]): 56 ± 7%
- % time spent in the open branches (BALB/C mice; [8]): 55 ± 7* %
- entries into the unprotected open branches of the labyrinth (BALB/C mice; dose of 10 μg): increases the number of entries
- overall effect on anxiety in the labyrinth (BALB/C mice; under the experimental conditions used): anxiogenic effect
